The values below are quoted from earlier work in paper PMC4791286, “Puquitinib mesylate, an inhibitor of phosphatidylinositol 3-kinase p110δ, for treating relapsed or refractory non-Hodgkin's lymphoma” (Oncotarget, 2015).

Where a name gives a salt, the structure may show the parent alone.

The test system of this series is advanced solid tumors. Conditions: twice-daily dosing at 25 mg, 37.5 mg after the meal, 28-day cycles; ref unpublished information, personal communication with Wei Mao on January 1, 2013; cited from earlier work.

Consider `c1cnc2ccc(Nc3nc(NC4CC4)c4nc[nH]c4n3)cc2c1` [XC-302, Puquitinib Mesylate], for which the “DLT greater than Grade 2” value is on record as “not observed”.
